Literature values as cited in publication PMC4452637, “Identification of positron emission tomography (PET) tracer candidates by prediction of the target-bound fraction in the brain” (EJNMMI Research, 2014).

Target: D2
Design: method as in ref 22, 31, 62, 82 (Additional file 1)
Conditions: literature value; 82 (Additional file 1); cited from earlier work

In the case of CCN1CCC[C@H]1CNC(=O)c1c(O)c(Cl)cc(Cl)c1OC (racemic) [[^11C]Raclopride], the Kd is given as 2.5 nM.
